Test: Solubility in water (descriptive)
Conditions: physical properties stated in detailed description

## dextromethorphan tannate [D-M Tannate of the invention]
  solubility in water: slightly soluble
